The results in this text go back to ChEMBL document CHEMBL4406836, “The design of a cell-selective fowlicidin-1-derived peptide with both antimicrobial and anti-inflammatory activities” (Eur J Med Chem, 2019).

Experiment [1] concerns Staphylococcus aureus. Nature of the experiment: Antibacterial activity against methicillin-resistant Staphylococcus aureus CCARM 3089 assessed as reduction in bacterial growth incubated for 18 hrs by spectrophotometry based microtiter broth dilution method. The format is functional. The following applies: CCARM 3089, 18 h. (Broth dilution looks for growth in wells or tubes with falling amounts of substance.)

Another experiment relates to Salmonella typhimurium. Nature of the experiment: Antibacterial activity against Salmonella typhimurium KCTC 1926 assessed as reduction in bacterial growth incubated for 18 hrs by spectrophotometry based microtiter broth dilution method. The format is functional, Salmonella enterica subsp. enterica serovar Typhimurium. The following applies: Salmonella enterica, KCTC 1926, 18 h.

The next experiment deals with Bacillus subtilis. Nature of the experiment: Antibacterial activity against Bacillus subtilis KCTC 3068 assessed as reduction in bacterial growth incubated for 18 hrs by spectrophotometry based microtiter broth dilution method. The format is functional. The following applies: KCTC 3068, 18 h.
The next experiment concerns Escherichia coli. Description: Antibacterial activity against Escherichia coli KCTC 1682 assessed as reduction in bacterial growth incubated for 18 hrs by spectrophotometry based microtiter broth dilution method. The format is functional. The following applies: KCTC 1682, 18 h.
Experiment [2] relates to Staphylococcus aureus. Nature of the experiment: Antibacterial activity against methicillin-resistant Staphylococcus aureus CCARM 3090 assessed as reduction in bacterial growth incubated for 18 hrs by spectrophotometry based microtiter broth dilution method. It is filed as functional. The following applies: CCARM 3090, 18 h.
For experiment [3], the system named is Pseudomonas aeruginosa. Nature of the experiment: Antibacterial activity against multidrug-resistant Pseudomonas aeruginosa CCARM 2109 assessed as reduction in bacterial growth incubated for 18 hrs by spectrophotometry based microtiter broth dilution method. The following applies: CCARM 2109, 18 h. It is filed as functional.
Experiment [4] has as its system Staphylococcus epidermidis. Nature of the experiment: Antibacterial activity against Staphylococcus epidermidis KCTC 1917 assessed as reduction in bacterial growth incubated for 18 hrs by spectrophotometry based microtiter broth dilution method. The format is functional. The following applies: KCTC 1917, 18 h.
Experiment [5] relates to Pseudomonas aeruginosa. Nature of the experiment: Antibacterial activity against Pseudomonas aeruginosa KCTC 1637 assessed as reduction in bacterial growth incubated for 18 hrs by spectrophotometry based microtiter broth dilution method. The following applies: KCTC 1637, 18 h. The format is functional.
Experiment [6] deals with Staphylococcus aureus. Nature of the experiment: Antibacterial activity against methicillin-resistant Staphylococcus aureus CCARM 3095 assessed as reduction in bacterial growth incubated for 18 hrs by spectrophotometry based microtiter broth dilution method. The format is functional. The following applies: CCARM 3095, 18 h.
Experiment [7] relates to Pseudomonas aeruginosa. Nature of the experiment: Antibacterial activity against multidrug-resistant Pseudomonas aeruginosa CCARM 2095 assessed as reduction in bacterial growth incubated for 18 hrs by spectrophotometry based microtiter broth dilution method. It is filed as functional. The following applies: CCARM 2095, 18 h.
For experiment [8], the system named is Staphylococcus aureus. Description: Antibacterial activity against Staphylococcus aureus KCTC 1621 assessed as reduction in bacterial growth incubated for 18 hrs by spectrophotometry based microtiter broth dilution method. It is filed as functional. The following applies: KCTC 1621, 18 h.

Converted amounts (≈) assume the structure as drawn.

One may read the MIC as the smallest concentration in the dilution series that meets the test's criterion for growth inhibition. On to `CC[C@H](C)[C@H](NC(=O)CN)C(=O)NCC(=O)N[C@@H](C)C(=O)N[C@H](C(=O)N[C@@H](CC(C)C)C(=O)N[C@@H](CCCCN)C(=O)N[C@H](C(=O)N[C@@H](CC(C)C)C(=O)N[C@H](C(=O)N[C@H](C(=O)NCC(=O)N[C@@H](CC(C)C)C(=O)N1CCC[C@H]1C(=O)N[C@@H](C)C(=O)N[C@@H](CC(C)C)C(=O)N[C@H](C(=O)N[C@@H](CO)C(=O)N[C@@H](Cc1c[nH]c2ccccc12)C(=O)N[C@H](C(=O)N[C@@H](CCCCN)C(=O)N[C@@H](CCCNC(=N)N)C(=O)N[C@@H](CCCCN)C(=O)N[C@@H](CCCNC(=N)N)C(=O)N[C@@H](CCC(N)=O)C(=O)N[C@@H](CCC(N)=O)C(N)=O)[C@@H](C)CC)[C@@H](C)CC)[C@@H](C)O)[C@@H](C)O)C(C)C)C(C)C` [MELITTIN], for which the MIC in the experiment on Staphylococcus aureus [1] amounted to 4 µM (≈ 11.4 µg/mL); with Salmonella typhimurium it was 2 µM (≈ 5.69 µg/mL); with Bacillus subtilis, 1 µM (≈ 2.85 µg/mL); with Escherichia coli, 4 µM (≈ 11.4 µg/mL); in the experiment with Staphylococcus aureus [2], 16 µM (≈ 45.5 µg/mL); with Pseudomonas aeruginosa [3] it was 8 µM (≈ 22.8 µg/mL). The MIC in experiment [4] amounted to 4 µM (≈ 11.4 µg/mL); in the experiment with Pseudomonas aeruginosa [5], 2 µM (≈ 5.69 µg/mL); in the experiment on Staphylococcus aureus [6] it was 4 µM (≈ 11.4 µg/mL); in the experiment on Pseudomonas aeruginosa [7], 8 µM (≈ 22.8 µg/mL); in the experiment on Staphylococcus aureus [8] it was 2 µM (≈ 5.69 µg/mL).
